Measurements taken from PMC10443802, “Targeting a xenobiotic transporter to ameliorate vincristine-induced sensory neuropathy” (JCI Insight, 2023).

Target: T1, hNTCP (Homo sapiens, UniProt Q14973)
T1 sequence (Q14973 1-349): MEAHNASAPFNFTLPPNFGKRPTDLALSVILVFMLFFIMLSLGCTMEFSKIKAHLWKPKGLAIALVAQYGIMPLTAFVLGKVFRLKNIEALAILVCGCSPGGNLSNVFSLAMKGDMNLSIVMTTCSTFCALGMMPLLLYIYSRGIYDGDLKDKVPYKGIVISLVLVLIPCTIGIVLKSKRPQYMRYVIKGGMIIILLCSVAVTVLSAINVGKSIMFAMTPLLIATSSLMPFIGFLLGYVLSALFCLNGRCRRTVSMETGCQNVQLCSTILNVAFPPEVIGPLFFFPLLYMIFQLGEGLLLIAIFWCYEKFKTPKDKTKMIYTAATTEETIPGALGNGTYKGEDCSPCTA
Test: Vincristine uptake screen, HeLa cells overexpressing hNTCP
Assay type: in vitro ADME

In the case of `CC[C@]1(O)C[C@H]2CN(CCc3c([nH]c4ccccc34)[C@@](C(=O)OC)(c3cc4c(cc3OC)N(C=O)[C@H]3[C@@](O)(C(=O)OC)[C@H](OC(C)=O)[C@]5(CC)C=CCN6CC[C@]43[C@@H]65)C2)C1` [Vincristine, vincristine], the “Vincristine uptake (% of vector control)” value is reported as 115.00 % of vector control.
